# Biological target: T1, PGF2α receptor (FP) (Homo sapiens, UniProt P43088)
# By UniProt entry, the sequences of proteins in these tests, tags left out. Where a name states a change or a piece, a line headed by the entry shows the natural chain unless it says otherwise.
# UniProt P43088: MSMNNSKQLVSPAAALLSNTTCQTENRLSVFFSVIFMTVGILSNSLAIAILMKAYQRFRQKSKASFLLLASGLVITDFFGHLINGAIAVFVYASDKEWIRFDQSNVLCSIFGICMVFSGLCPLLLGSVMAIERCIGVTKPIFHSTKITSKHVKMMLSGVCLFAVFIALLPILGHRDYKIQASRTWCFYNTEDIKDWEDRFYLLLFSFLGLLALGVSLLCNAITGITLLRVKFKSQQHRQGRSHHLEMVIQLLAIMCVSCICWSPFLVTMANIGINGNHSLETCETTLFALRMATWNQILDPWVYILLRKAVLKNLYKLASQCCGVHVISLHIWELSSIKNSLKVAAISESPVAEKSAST
# T1 construct: expressed in transfected cells; host or cells: HEK293SL
# Experiment: β-arrestin2 targeting to endosomes BRET (βarr2-RlucII/rGFP-endofinFYVE) with FP
# Assay type: cell-based
# Conditions: 40 min
# Protocol: BRET measurements for FIGS. 1B to 9D, 25D to 25F. The following day of transfection, cells were detached and replated onto poly-ornithine coated white 96-well plate at a density of 25,000 cells per well. The next day, cells were washed once with pre-warmed Tyrode's buffer (140 mM NaCl, 2.7 mM KCl, 1 mM CaCl2, 12 mM NaHCO3, 5.6 mM D-glucose, 0.5 mM MgCl2, 0.37 mM NaH2PO4, 25 mM HEPES, pH 7.4), and then stimulated with either various concentrations of ligands in Tyrode's buffer for the indicated time, or single concentration of ligands for various times at 37° C. For recycling experiment, after stimulating the cells with the ligands for 30 min at 37° C., they were washed either three times with ice-cold Tyrode's buffer or once with Tyrode's buffer/three times with acid (50 mM sodium citrate, pH 4.0)/two times with Tyrode's buffer. All the washing steps were performed on ice. […] The cell-permeable substrate, coelenterazine 400a was added at a final concentration of 5 μM in Tyrode's buffer 3-4 min before BRET measurements. […] The BRET signal was determined by calculating the ratio of the light intensity emitted by the GFP10 or rGFP over the light intensity emitted by the RlucII. All the BRET measurements were performed in triplicate at 37° C.
substance,measurement,value
Prostaglandin F2α [PGF2α],receptor/β-arrestin targeting to endosomes,no increase over basal in the BRET ratio was detected
